From patent US4153688A, “Trifluoromethylated oligopeptides” (Delalande S.A., priority 1977, dated 1979) come the findings set out here.

By UniProt entry, the sequences of proteins in these tests, tags left out. Residues count along the entry.
UniProt P00772, 27-266 limits assumed: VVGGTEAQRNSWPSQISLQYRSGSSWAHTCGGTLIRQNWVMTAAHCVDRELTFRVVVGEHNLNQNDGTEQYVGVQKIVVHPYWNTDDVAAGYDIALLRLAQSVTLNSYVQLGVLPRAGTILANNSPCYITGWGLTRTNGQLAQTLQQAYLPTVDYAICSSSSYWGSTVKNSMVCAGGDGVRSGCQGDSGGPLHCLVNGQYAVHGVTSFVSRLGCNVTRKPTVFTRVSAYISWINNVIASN
UniProt P08246, 30-267 limits assumed: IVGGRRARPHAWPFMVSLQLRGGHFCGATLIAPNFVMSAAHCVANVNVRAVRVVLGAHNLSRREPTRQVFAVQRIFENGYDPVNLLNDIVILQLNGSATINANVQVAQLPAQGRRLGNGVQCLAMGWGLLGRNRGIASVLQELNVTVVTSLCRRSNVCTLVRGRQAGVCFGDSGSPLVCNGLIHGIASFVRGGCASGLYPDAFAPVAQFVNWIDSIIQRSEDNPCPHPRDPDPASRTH

The target in experiment [1] is porcine pancreatic elastase (Sus scrofa, UniProt P00772). The experiment in a line: Inhibition constant KI (Dixon method) on pancreatic elastase, hydrolysis of succinyl-tri-L-alanine-paranitroanilide. The conditions noted are these: read-out: K T^ (a) pancreatic, 25° C., TRIS 0.2 M buffer, pH 8, absence of any organic solvent. An excerpt: (§1) This latter was purified according to the Travis method (Baugh, R. J. and Travis, J. (1976), Biochemistry, 15, 4, 836). The method of study used is the conventional method of Dixon (Dixon, M., (1953), Biochemical Journal, 55, 1970) for measuring the inhibition constants KI of the compounds of the invention with regard to the hydrolysis reactions of the succinyl-tri-L-alanine-paranitroanilide catalysed by the two above elastases (Bieth J., Spiess B. and Wermuth C. G. (1974) Biochemical Medicine, 11, 350). In certain cases (leucocytal elastase) the inhibitory power of the compounds studied was measured by means of the I50 concentration of these compounds inducing 50% inhibition of the hydrolysis of the succinyl-tri-alanine-paranitroanilide at a 10^-3 M concentration catalysed by the enzyme. […] All the measurements were made at 25° C. in a 0.2 Molar buffer solution of tri-hydroxymethyl-aminomethane at pH 8.
(§2) Table E below lists the results obtained for the compounds of formula (I) as well as the reference compounds (A), acetyl-L-prolyl-L-alanyl-L-prolyl-L-alaninal, for the pancreatic elastase (Thompson, R. C., Biochemistry (1973), 17, 1, 47) and (B), oleic acid, for the leucocytal elastase (Ashe, B. M. and Zimmerman, M. (1977), Biochem. Biophys. Res. Comm., 75, 194).

The target in experiment [2] is T1, leucocytal elastase (Homo sapiens, UniProt P08246). Put plainly: Inhibition constant KI (Dixon method) on leucocytal elastase, hydrolysis of succinyl-tri-L-alanine-paranitroanilide. The conditions noted are these: read-out: K T^ (a) leucocytal; 25° C., TRIS 0.2 M buffer, pH 8; absence of any organic solvent; tested form: HCl.
From the text: as §1, §2

Experiment [3] has as its target T1, leucocytal elastase. Put plainly: I50 on leucocytal elastase, hydrolysis of succinyl-tri-alanine-paranitroanilide at 10^-3 M. The conditions noted are these: read-out: T 50^ (b) leucocytal, 25° C., TRIS 0.2 M buffer, pH 8, substrate 10^-3 M, in the presence of 50 % dimethylformamide (footnote).
From the text: as §1

Molecules are shown by their SMILES. Read-outs that look alike come from different tables or passages of the source.

With `C[C@H](NC(=O)[C@H](CCCCN)NC(=O)C(F)(F)F)C(=O)Nc1ccc(N(C)C)cc1`, the Ki in experiment [1] (tested form: HCl) turned out to be 70 nM; at leucocytal elastase [2], 700 nM. In addition, the IC50 on leucocytal elastase [3] (tested form: HCl) is 4800 nM.
On to `NCCCC[C@H](NC(=O)[C@H](CCCCN)NC(=O)C(F)(F)F)C(=O)Nc1ccc(C(F)(F)F)cc1`, for which the Ki in experiment [1] (tested form: 2HCl) came out at 150 nM. For the same compound, the IC50 at leucocytal elastase [3] (tested form: 2HCl) is 140000 nM.
